## AlphaSeq binding of Ab-14 light chain variants to a spike HR2 peptide

Target peptide (SARS-CoV-2 spike, HR2 region): PDVDLGDISGINAS

Ab-14 is the parent antibody, in scFv form: VH, then three GGGGS repeats, then VL. The heavy chain is unchanged in all variants.
VH: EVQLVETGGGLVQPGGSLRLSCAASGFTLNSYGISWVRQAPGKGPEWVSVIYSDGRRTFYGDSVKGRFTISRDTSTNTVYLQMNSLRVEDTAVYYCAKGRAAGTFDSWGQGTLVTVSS
VL: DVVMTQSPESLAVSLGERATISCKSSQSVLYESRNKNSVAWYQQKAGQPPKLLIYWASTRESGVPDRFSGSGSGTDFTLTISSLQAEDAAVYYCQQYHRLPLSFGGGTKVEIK

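The starting antibody came from a phage panning campaign against this peptide. In library AAYL50, one, two or three CDR residues were substituted; doubles and triples were drawn at random. The assay is AlphaSeq: two haploid yeast populations carry antibody and antigen on their surface. Binding brings cells together so that they mate, and sequencing counts the barcode pairs among the diploids. Each replicate has its own calibration line, from reference interactions of the BCL2 family. The assay was run in three technical replicates.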

Each variant's VL is given in full.
Kd is apparent (estimated from mating counts) and averaged on the log scale over replicates with a signal. Smaller is tighter.
Where no diploid with the target was found in any replicate, the entry reads "no signal": below detection, most likely a poor binder, though not proof of it.
Empty control strains, which show no peptide, gave a signal in 18% of pairings with library AAYL50; the median was 15 µM and 95% of these signals were weaker than 970 nM. No background was subtracted. The control count says in how many pairings with the empty strains this scFv gave a signal.

| VL | Kd | detected | signal with controls |
|---|---|---|---|
| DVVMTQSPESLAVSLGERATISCKSSQSVLYESRNKNSVAWYQQKAGQPPKLLIYWASRRESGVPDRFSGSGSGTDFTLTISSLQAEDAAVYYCQQYCRLPLSFGGGTKVEIK | 65 nM | 3 of 3 | 2 of 9 |
| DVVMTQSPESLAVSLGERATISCKSSQSVLYESRNKNSVAWYQQKAGQPPKLLIYGASTRVSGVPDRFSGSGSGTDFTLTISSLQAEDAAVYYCQQYHRLPLSFGGGTKVEIK | 4.3 nM | 3 of 3 | 0 of 9 |
| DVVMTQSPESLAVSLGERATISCKSSQSVLYESRNKNSVAWYQQKAGQPPKLLIYWASTRSSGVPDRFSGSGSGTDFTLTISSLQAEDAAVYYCQQTARLPLSFGGGTKVEIK | no signal | 0 of 3 | 2 of 9 |
| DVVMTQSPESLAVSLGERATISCKSSQSVLREKRNKNSVAWYQQKAGQPPKLLIYWASTRFSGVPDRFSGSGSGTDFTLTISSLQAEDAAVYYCQQYHRLPLSFGGGTKVEIK | no signal | 0 of 3 | 0 of 9 |
| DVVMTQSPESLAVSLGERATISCKSSQSVLYESRNKNSVAWYQQKAGQPPKLLIYWASTYVSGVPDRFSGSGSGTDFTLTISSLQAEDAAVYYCQQYHRLPLSFGGGTKVEIK | no signal | 0 of 3 | 0 of 9 |
| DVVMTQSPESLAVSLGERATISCKSSQSVLYEHRNKNSWAWYQQKAGQPPKLLIYWASTRESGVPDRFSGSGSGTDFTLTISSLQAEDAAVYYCQQYWRLPLSFGGGTKVEIK | 470 nM | 1 of 3 | 4 of 9 |
| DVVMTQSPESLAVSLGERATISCKSSQYVLYESRNVNSVAWYQQKAGQPPKLLIYWASTRESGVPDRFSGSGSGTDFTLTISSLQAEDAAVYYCQQYCRLPLSFGGGTKVEIK | no signal | 0 of 3 | 1 of 9 |
| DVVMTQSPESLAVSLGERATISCKSSQSVLYESRNKNSVAWYQQKAGQPPKLLIYLLSTRESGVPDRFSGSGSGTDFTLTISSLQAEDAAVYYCQQKHRLPLSFGGGTKVEIK | no signal | 0 of 3 | 0 of 9 |
| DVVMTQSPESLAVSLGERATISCASSQSVFYESRNKNSVAWYQQKAGQPPKLLIYWASTRESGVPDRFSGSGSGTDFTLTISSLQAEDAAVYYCQQYHRLPLLFGGGTKVEIK | 330 nM | 3 of 3 | 4 of 9 |
| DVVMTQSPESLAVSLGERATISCQSSQSVLYESRNKNSNAWYQQKAGQPPKLLIYWYSTRESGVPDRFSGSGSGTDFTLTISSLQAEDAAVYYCQQYHRLPLSFGGGTKVEIK | no signal | 0 of 3 | 2 of 9 |
| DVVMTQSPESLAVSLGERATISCKSSQSVLYESRIKNSVAWYQQKAGQPPKLLIYWASRREFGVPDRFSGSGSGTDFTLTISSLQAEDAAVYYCQQYHRLPLSFGGGTKVEIK | 670 nM | 3 of 3 | 0 of 9 |
| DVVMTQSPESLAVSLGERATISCKSSSSLLAESRNKNSVAWYQQKAGQPPKLLIYWASTRESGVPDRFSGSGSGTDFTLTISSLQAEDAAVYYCQQYHRLPLSFGGGTKVEIK | 120 nM | 3 of 3 | 3 of 9 |
| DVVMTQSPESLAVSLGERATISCKSSQKVLYESRNKNSVAWYQQKAGQPPKLLIYNASTRESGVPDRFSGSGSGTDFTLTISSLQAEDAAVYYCQQYHRLALSFGGGTKVEIK | 63 µM | 2 of 3 | 3 of 9 |
| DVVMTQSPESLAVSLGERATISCKSGQSVLYESRNKNSQAWYQQKAGQPPKLLIYWASTRESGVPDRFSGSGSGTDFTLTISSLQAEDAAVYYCQQYHRLDLSFGGGTKVEIK | no signal | 0 of 3 | 0 of 9 |
| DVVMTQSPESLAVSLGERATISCKSSQKVLYELRNKNSVWWYQQKAGQPPKLLIYWASTRESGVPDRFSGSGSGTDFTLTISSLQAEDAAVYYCQQYHRLPLSFGGGTKVEIK | 10 µM | 1 of 3 | 0 of 9 |
| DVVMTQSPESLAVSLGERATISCKSSSSVLYESRNKNSIAWYQQKAGQPPKLLIYWFSTRESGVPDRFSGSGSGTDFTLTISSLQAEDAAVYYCQQYHRLPLSFGGGTKVEIK | 7.2 µM | 1 of 3 | 0 of 9 |
| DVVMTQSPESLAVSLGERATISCKSSQSVLAESYNKNSVAWYQQKAGQPPKLLIYWASTRGSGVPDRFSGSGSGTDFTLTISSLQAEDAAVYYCQQYHRLPLSFGGGTKVEIK | 2.6 nM | 3 of 3 | 0 of 9 |
| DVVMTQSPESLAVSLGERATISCKSSQSVLYKSRNKNSVAWYQQKAGQPPKLLIYWASTRESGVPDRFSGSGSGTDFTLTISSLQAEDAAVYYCMQYHRLGLSFGGGTKVEIK | no signal | 0 of 3 | 3 of 9 |

For reference, 2 entries of the list once more:

{"VL": "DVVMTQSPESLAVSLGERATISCKSSQSVLYEHRNKNSWAWYQQKAGQPPKLLIYWASTRESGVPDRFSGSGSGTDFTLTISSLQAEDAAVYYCQQYWRLPLSFGGGTKVEIK", "Kd": "470 nM", "detected": "1 of 3", "signal with controls": "4 of 9"}
{"VL": "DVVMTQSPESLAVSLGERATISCKSSQSVLYESRIKNSVAWYQQKAGQPPKLLIYWASRREFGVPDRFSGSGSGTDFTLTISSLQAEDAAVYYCQQYHRLPLSFGGGTKVEIK", "Kd": "670 nM", "detected": "3 of 3", "signal with controls": "0 of 9"}

Source: Engelhart et al. 2022 (doi:10.1038/s41597-022-01779-4), MIT Lincoln Laboratory and A-Alpha Bio; data file from the FLAb repository.